Test results as given in publication PMC5260423 (Journal of Veterinary Internal Medicine, 2016).

Assay type: in vivo, cat
Details: mean ± SEM; eight healthy cats

Insulin aspart
duration of action, IM: 176 ± 19.8 min
duration of action, SC: 154 ± 14.8 min
time to onset of action, IM: 13.75 ± 3.1 min
time to onset of action, SC: 11.12 ± 0.97 min
